# This is a selection; strong and weak results do not stand in their true shares. Calls of active or inactive are those of the source.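 The calls were made as follows: active = average inhibition above a cutoff equal to the mean inhibition of all tested compounds plus one SD (cut at about 70% in these data); inactive = the rest.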
# Chains of the proteins cited; added tags and fusions are not shown. Lines headed by an entry give the natural chain unless they say otherwise; changes in a name come on top.
# UniProt Q9Y5X4: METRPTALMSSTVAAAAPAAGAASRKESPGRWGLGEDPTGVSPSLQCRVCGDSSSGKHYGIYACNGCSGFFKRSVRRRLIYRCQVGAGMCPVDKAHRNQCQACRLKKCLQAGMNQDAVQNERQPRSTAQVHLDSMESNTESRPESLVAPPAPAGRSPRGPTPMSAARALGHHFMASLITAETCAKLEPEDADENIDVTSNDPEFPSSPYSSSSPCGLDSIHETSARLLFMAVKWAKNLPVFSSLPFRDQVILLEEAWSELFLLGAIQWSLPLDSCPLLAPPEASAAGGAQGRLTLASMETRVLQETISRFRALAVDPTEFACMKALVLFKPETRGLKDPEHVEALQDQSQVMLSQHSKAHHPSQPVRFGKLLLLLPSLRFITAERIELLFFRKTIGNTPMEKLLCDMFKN
# Biological target: Photoreceptor-specific nuclear receptor (Homo sapiens) (UniProt Q9Y5X4)
# Experiment: retest of NR2E3-NCOR disrupting agonists – cell-based, luminescence, CHO-S two-hybrid, confirmation (AID 624378);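 also: 0% = DMSO in NR2E3 cells and 100% = DMSO in cells lacking NR2E3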
# Conditions: CHO-S mammalian two-hybrid NR2E3-NCOR, luciferase luminescence; at 3.98 µM; hits give high values
row,SMILES,inhibition
1,C[N+]1=C2C=CC=CC=C2SC12C([N+](=O)[O-])=CC([N+](=O)[O-])=C[C-]2[N+](=O)[O-] (configuration not stated),inactive: -3.42%
2,CC(=O)NC(SC(=S)N(C)C)C(Cl)(Cl)Cl (configuration not stated),inactive: 8.72%
